Broadly, the IC50 is the concentration that gives 50% inhibition.

The chains behind the UniProt entries cited, without tags or fusion partners.
UniProt O43613, whole entry: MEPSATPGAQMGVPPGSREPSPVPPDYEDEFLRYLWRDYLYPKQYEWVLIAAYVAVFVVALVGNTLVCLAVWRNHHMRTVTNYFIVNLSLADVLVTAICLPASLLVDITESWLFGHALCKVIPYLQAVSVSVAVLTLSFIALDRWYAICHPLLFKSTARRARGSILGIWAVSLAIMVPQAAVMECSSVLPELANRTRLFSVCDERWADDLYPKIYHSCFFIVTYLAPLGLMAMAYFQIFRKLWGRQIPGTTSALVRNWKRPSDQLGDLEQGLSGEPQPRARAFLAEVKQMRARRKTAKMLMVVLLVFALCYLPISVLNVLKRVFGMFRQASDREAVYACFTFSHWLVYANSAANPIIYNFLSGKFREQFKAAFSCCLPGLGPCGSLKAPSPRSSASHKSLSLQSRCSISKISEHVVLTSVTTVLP

The test concerns the target T1, OX1 (Homo sapiens, UniProt O43613).
T1 construct: expressed in transfected cells; host or cells: CHO (CHO-OX1, kept under selection antibiotic)
The test can be described thus: Orexin receptor cell-based functional assay, [Ca2+]i by FLIPR, CHO-OX1 cells. To be noted: Table 2; CHO-OX1 cells, EC90 of OXA; read-out: IC50 Bioactivity OX1.
Turning to `Cc1nc(C(=O)N2CCC[C@@H](C(F)(F)F)[C@H]2CNc2nc3ccccc3o2)c(-c2ccccc2)s1` (racemic) [Example 13, rac-cis-(2-((Benzo[d]oxazol-2-ylamino)methyl)-3-(trifluoromethyl)piperidin-1-yl)(2-methyl-5-phenylthiazol-4-yl)methanone], the IC50 amounted to 0.009 µM.

On to `Cc1nc(C(=O)N2CCC[C@@H](C)[C@H]2CNc2ncc(Br)cn2)c(-c2ccc(F)cc2)s1` (racemic) [Example 15, rac-cis-(2-(((5-Bromopyrimidin-2-yl)amino)methyl)-3-methylpiperidin-1-yl)(5-(4-fluorophenyl)-2-methylthiazol-4-yl)methanone], for which the IC50 turned out to be 0.001 µM.

In the case of `Cc1nc(C(=O)N2CCC[C@@H](C)[C@H]2CNc2nccc(Cl)n2)c(-c2ccc(F)cc2)s1` (racemic) [Example 20, rac-cis-(2-(((4-Chloropyrimidin-2-yl)amino)methyl)-3-methylpiperidin-1-yl)(5-(4-fluorophenyl)-2-methylthiazol-4-yl)methanone], the IC50 turned out to be 1.3 µM.

As to `Cc1cccc(NC[C@@H]2[C@H](C)CCCN2C(=O)c2nc(C)sc2-c2ccc(F)cc2)n1` (racemic) [Example 23, rac-cis-(5-(4-Fluorophenyl)-2-methylthiazol-4-yl)(3-methyl-2-(((6-methylpyridin-2-yl)amino)methyl)piperidin-1-yl)methanone], the IC50 was found to be 0.06 µM.

As for `Cc1nc(C(=O)N2CCC[C@@H](C)[C@H]2CNc2nc3ccccc3o2)c(-c2ccc(F)cc2)s1` (racemic) [Example 24, rac-cis-(2-((Benzo[d]oxazol-2-ylamino)methyl)-3-methylpiperidin-1-yl)(5-(4-fluorophenyl)-2-methylthiazol-4-yl)methanone], the IC50 was 0.004 µM.

In the case of `Cc1nc(C(=O)N2C(C)CCCC2CNc2ncc(C(F)(F)F)cn2)c(-c2ccc(F)cc2)s1` (racemic) [Example 27, rac-(5-(4-Fluorophenyl)-2-methylthiazol-4-yl)(2-methyl-6-(((5-(trifluoromethyl)pyrimidin-2-yl)amino)methyl)piperidin-1-yl)methanone], the IC50 was under 0.1 µM.

For `Cc1nc(C(=O)N2C(C)CCCC2CNc2ncc(Cl)cn2)c(-c2ccc(F)cc2)s1` (racemic) [Example 28, rac-(2-(((5-Chloropyrimidin-2-yl)amino)methyl)-6-methylpiperidin-1-yl)(5-(4-fluorophenyl)-2-methylthiazol-4-yl)methanone], the IC50 was under 0.01 µM.

Turning to `CC[C@@H]1CCCN(C(=O)c2nc(C)sc2-c2ccc(F)cc2)[C@@H]1CNc1nc2ccccc2o1` (racemic) [Example 77, rac-cis-(2-((Benzo[d]oxazol-2-ylamino)methyl)-3-ethylpiperidin-1-yl)(5-(4-fluorophenyl)-2-methylthiazol-4-yl)methanone], the IC50 is 0.07 µM.

Take `Cc1nc(C(=O)N2CCC[C@@H](C)[C@H]2COc2ccc(C(F)(F)F)cn2)c(-c2ccc(F)cc2)s1` (racemic) [Example 79, rac-cis-(3-Methyl-2-(((5-(trifluoromethyl)pyridin-2-yl)oxy)methyl)piperidin-1-yl)(5-(4-fluorophenyl)-2-methylthiazol-4-yl)methanone]: the IC50 came to 0.001 µM.

As for `CCc1cnc(OC[C@@H]2[C@H](C)CCCN2C(=O)c2nc(C)sc2-c2ccc(F)cc2)nc1` (racemic) [Example 81, rac-cis-(2-(((5-Ethylpyrimidin-2-yl)oxy)methyl)-3-methylpiperidin-1-yl)(5-(4-fluorophenyl)-2-methylthiazol-4-yl)methanone], the IC50 is under 0.01 µM.

For the compound `Cc1nc(C(=O)N2CCC[C@@H](C)[C@H]2CNc2ccc(F)cn2)c(-c2ccc(F)cc2)s1` (racemic) [Example 85, rac-cis-(2-(((5-Fluoropyridin-2-yl)amino)methyl)-3-methylpiperidin-1-yl)(5-(4-fluorophenyl)-2-methylthiazol-4-yl)methanone], the IC50 was 0.1 µM.

Source of the values: US9440982B2 (Eolas Therapeutics, Inc., priority 2012, dated 2016).
